For 16 compounds, inhibition results are on record in PubChem BioAssay AID1347404 (Pan Lab, Icahn School of Medicine at Mount Sinai, 2020).

Protein sequences, listed by entry. Tags and fused reporters are not part of them.
UniProt P62877, whole entry, looked up: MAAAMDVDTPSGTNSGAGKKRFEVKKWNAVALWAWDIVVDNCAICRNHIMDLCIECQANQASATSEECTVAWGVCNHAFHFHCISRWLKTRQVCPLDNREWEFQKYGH
UniProt Q13616, whole entry, looked up: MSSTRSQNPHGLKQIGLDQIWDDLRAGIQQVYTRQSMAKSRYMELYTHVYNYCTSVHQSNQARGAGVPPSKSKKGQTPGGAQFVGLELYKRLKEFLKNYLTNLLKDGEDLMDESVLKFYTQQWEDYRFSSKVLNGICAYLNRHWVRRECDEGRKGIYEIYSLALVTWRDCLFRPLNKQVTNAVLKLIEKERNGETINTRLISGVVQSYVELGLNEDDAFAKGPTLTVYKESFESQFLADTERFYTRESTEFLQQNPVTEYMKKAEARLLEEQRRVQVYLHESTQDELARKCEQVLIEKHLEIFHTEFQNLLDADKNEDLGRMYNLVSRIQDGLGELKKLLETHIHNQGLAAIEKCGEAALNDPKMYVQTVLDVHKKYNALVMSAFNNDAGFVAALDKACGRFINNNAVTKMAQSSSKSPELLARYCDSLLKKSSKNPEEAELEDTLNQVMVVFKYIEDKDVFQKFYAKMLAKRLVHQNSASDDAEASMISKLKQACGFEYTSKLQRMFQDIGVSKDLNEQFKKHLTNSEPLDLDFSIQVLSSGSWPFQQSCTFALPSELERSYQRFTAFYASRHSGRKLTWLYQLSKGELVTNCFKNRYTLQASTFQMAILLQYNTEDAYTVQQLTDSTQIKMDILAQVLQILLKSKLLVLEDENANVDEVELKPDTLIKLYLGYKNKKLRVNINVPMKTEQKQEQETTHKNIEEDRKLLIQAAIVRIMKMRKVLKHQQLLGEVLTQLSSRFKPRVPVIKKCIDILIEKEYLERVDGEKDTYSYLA

Each structure is given as a SMILES string. The entries are a selection whose mix differs from that of the whole data set. Some results for these compounds are left out of this collection, so the calls shown say nothing about other tests. Activity calls are given as the source filed them. No stated cut-off is given here; in the data, active means inhibition above about 25%; inactive means the rest.

This test concerns the target E3 ubiquitin-protein ligase RBX1 (Homo sapiens) + Cullin-1 (Homo sapiens) (UniProt P62877+Q13616). Kind of test: inhibitors of human ROC1-CUL1 ubiquitin ligase activity (AID 1347404). To be noted: in vitro K48 di-Ub FRET, acceptor:donor ratio, 45 min; at 10 µM; stronger effect = higher value.
On to `COc1cccc(C(=O)NCC2(N3CCOCC3)CCCCC2)c1`, for which the inhibition was inactive: -3.96%. For `CN1CCCCC1COC(=O)C(O)(c1ccccc1)c1ccccc1` (stereo unspecified), the inhibition was inactive: 3.34%. As for `CC(C)COc1ccc(C(=O)NCC2(N(C)C)CCCCC2)cc1`, the inhibition is inactive: 5.85%. The figure for `Cc1cccc(C(=O)NCC2(N(C)C)CCCCC2)c1` is inactive: 3.49%. With `COc1cc(C(=O)NCC2(N(C)C)CCCCC2)cc(OC)c1OC`, the inhibition was inactive: 2.11%. Consider `CC(C)Oc1ccc(C(=O)NCC2(N(C)C)CCCCC2)cc1`, for which the inhibition was inactive: -4.95%. For `COc1ccc(C(=O)NCC2(N(C)C)CCCCC2)cc1Cl`, the inhibition was inactive: -3.29%.

On to `O=C(OCC1CCN(CC2CC2)CC1)C1(O)c2ccccc2Oc2ccccc21`, for which the inhibition is inactive: 12.5%. Take `CN(C)C1(CNC(=O)c2ccccc2[N+](=O)[O-])CCCCC1`: the inhibition is inactive: 8.26%.

On to `CCCCOc1ccccc1C(=O)NCC1(N(C)C)CCCCC1`, for which the inhibition was inactive: 0.882%. As to `CCN1CCCC(OC(=O)C2(O)c3ccccc3C=Cc3ccccc32)C1` (stereo unspecified), the inhibition was inactive: 10.8%. As to `COc1ccc(CC(c2ccc(C)cc2)N2CCN(C)CC2)cc1OC` (stereo unspecified), the inhibition is inactive: -6.14%. Turning to `CCOc1cccc(C(=O)NCC2(N(C)C)CCCCC2)c1`, the inhibition is inactive: -7.7%.

Take `CN1C2CCC1CC(OC(=O)C1(O)c3ccccc3CCc3ccccc31)C2` (stereo unspecified): the inhibition was inactive: 3.97%. For the compound `CN(C)C1(CNC(=O)c2cccc(Cl)c2)CCCCC1`, the inhibition was inactive: -7.18%. Turning to `CN(C)C1(CNC(=O)c2ccccc2F)CCCCC1`, the inhibition is inactive: -4.94%.
